Assay results as given in patent publication US20090143279A1 (priority 2007, published 2009).
Values joined by “and” are separate entries in the source; they are usually repeats but may differ in a detail not shown here. Identical values can stand only once.

Tested on: cellular ATP levels
Details: not given

Q: Which ATP does the source give for `NCCc1ccc(O)c(O)c1` [dopamine] here?
A: 0.276

Q: With `CN1CCC[C@H]1c1cccnc1` [nicotine] as the compound, how does the ATP read?
A: 0.808

Q: How did the ATP turn out when `COc1ccc2cc([C@@H](C)C(=O)[O-])ccc2c1.[Na+]` [(R)-naproxen sodium salt] was run?
A: 0.405

Q: Which ATP does the source give for `NC(N)=Nc1nc(CSCCC(N)=NS(N)(=O)=O)cs1` [famotidine] here?
A: 1.389

Q: Which ATP does the source give for `NCCCCN` [putrescine] here?
A: 1.023

Q: For `CC(=O)[O-].CC(=O)[O-].[Cd+2]` [cadmium acetate], which ATP is on record?
A: 0.954

Q: With `[O-][n+]1ccccc1[S-].[O-][n+]1ccccc1[S-].[Zn+2]` [pyrithione zinc] as the compound, how does the “ATP (composite Z-score vs DMSO)” value read?
A: −8.322

Q: How did the ATP turn out when `C[n+]1ccccc1/C=N/O` [pralidoxime] was run?
A: 0.594 and 0.365

Q: For trisodium ethylenediamine tetracetate, which ATP is on record?
A: 0.328

Q: Which ATP does the source give for `Oc1cccc2cccnc12` [oxyquinoline] here?
A: 0.574

Q: With L-methionine sulfoximine as the compound, how does the ATP read?
A: 0.202

Q: Which ATP does the source give for `CN1CCCN=C1/C=C/c1cccs1` [pyrantel pamoate] here?
A: −0.426

Q: For `COC(=O)[C@H](c1ccccc1Cl)N1CCc2sccc2C1` [clopidogrel], which ATP is on record?
A: 1.367

Q: Which ATP does the source give for pyrantel tartrate here?
A: 0.280

Q: With `C[C@]12CC[C@@H](O)C[C@H]1CC[C@@H]1[C@@H]2CC[C@]2(C)C(=O)CC[C@@H]12` [3-alpha-hydroxy-5-beta-androstan-17-one] as the compound, how does the ATP read?
A: 0.314

Same assay, conditions: Conc 20 μM; normalized score vs mock-treated (DMSO) wells

Q: How did the “ATP (composite Z-score)” value turn out when mepartricin was run?
A: −0.392

Same assay, conditions: composite Z-score vs DMSO; Conc 20 μM

Q: (−)-asarinin was tested. Which ATP did it give?
A: 0.276
